Data: patent US4263305A, “Novel pyridiniumaldoximes having micellar characteristics” (dated 1981)

What was measured:
[1] = Kinetics of reaction of pyridiniumaldoximes with diethyl p-nitrophenyl phosphate (first order rate constants, half-lives); conditions: for concentration-rate profile (observed first order rate constant vs concentration): carbonate-bicarbonate buffer; for factor of rate increase on addition of CTAB: CTAB 3×10^-3 M; for kobs'/Ox^- / kobs × 10^4, observed rate constant / kobs' × 10^4, observed rate constant corrected for hydrolysis: oxime 2 × 10^-3 M; for kobs × 10^4, observed rate constant / kobs' × 10^4, observed rate constant corrected for hydrolysis: printed values × 10^4
[2] = pKa determination, spectrophotometric; conditions: 25° C.
[3] = Solubility determination: molar absorptivities; conditions: 295 nm; ethanol/pH 9.3 carbonate buffer (50:50 v/v)
[4] = Critical micelle concentration (cmc) / micellar concentration; conditions: for critical micelle concentration: carbonate buffer, 25°±0.2° C., Raman peak of water at 478 nm; for cmc in the reaction medium: carbonate-bicarbonate buffer, pH 9.3, μ=0.5
[5] = micellar model, from slope and intercept of plot, pH 9.3, μ=0.5

CCCCCCCCCCCC[n+]1cccc(C=NO)c1
rate of reaction at the cmc [1]: observed rate increase was coincident with the formation of micelles | t1/2 of diethyl p-nitrophenyl phosphate ([1]; (B) 1.4 × 10^-3 alone): 0.467 h | t1/2 of diethyl p-nitrophenyl phosphate ([1]; (B) 2 × 10^-3 alone): 0.167 h | t1/2 of diethyl p-nitrophenyl phosphate ([1]; (B) 6 × 10^-4 alone): 41.5 h | concentration-rate profile (observed first order rate constant vs concentration) ([1]; pH 9.3, μ=0.5): marked deviation from linearity in the concentration-rate profile | bimolecular rate constant ([1]; concentration of B 6×10^-4 M, carbonate-bicarbonate buffer pH 9.3, μ=0.5, 25°C): 0.015 M⁻¹ s⁻¹ | bimolecular rate constant (compared with A) ([1]; concentrations of B ≤ 2×10^-4 M, pH 9.3, μ=0.5): equal to that of A within experimental error | quotient of k'obs and the oximate ion concentration ([1]; different pH, micellar medium): a constant | K/N (K binding constant, N aggregation number) [1, 5]: 56 M⁻¹ | km, reaction rate constant in the micellar phase [1, 5]: 0.0106 s⁻¹ | factor of rate increase on addition of CTAB ([1]; oxime 1×10^-3 M): 3 | factor of rate increase on addition of CTAB ([1]; oxime 1×10^-4 M): 82 | factor of rate increase on addition of CTAB ([1]; oxime 3×10^-3 M): less than 2 | kobs'/Ox^- ([1]; pH 8.3): 1.32 | kobs × 10^4, observed rate constant ([1]; pH 8.3): 2.12 | kobs' × 10^4, observed rate constant corrected for hydrolysis ([1]; pH 8.3): 2.12 | kobs'/Ox^- ([1]; pH 9.3): 0.69 | kobs × 10^4, observed rate constant ([1]; pH 9.3): 6.60 | kobs' × 10^4, observed rate constant corrected for hydrolysis ([1]; pH 9.3): 6.59 | kobs'/Ox^- ([1]; pH 10.6): 0.67 | kobs × 10^4, observed rate constant ([1]; pH 10.6): 12.7 | kobs' × 10^4, observed rate constant corrected for hydrolysis ([1]; pH 10.6): 12.6 | kobs'/Ox^- ([1]; pH 11.5): 0.68 | kobs × 10^4, observed rate constant ([1]; pH 11.5): 14.4 | kobs' × 10^4, observed rate constant corrected for hydrolysis ([1]; pH 11.5): 13.4 | kobs'/Ox^- ([1]; pH 12.2): 0.77 | kobs × 10^4, observed rate constant ([1]; pH 12.2): 17.8 | kobs' × 10^4, observed rate constant corrected for hydrolysis ([1]; pH 12.2): 15.3 | pKa ± S. E. ([2]; oxime 2 × 10^-3 M, above CMC, 2000 µM): 9.34 | pKa ± S. E. ([2]; oxime 5 × 10^-5 M, 3 × 10^-3 M Brij added, 50 µM): 9.65 | pKa ± S. E. ([2]; oxime 5 × 10^-5 M, 3 × 10^-3 M CTAB added, 50 µM): 9.15 | pKa ± S. E. ([2]; oxime 5 × 10^-5 M, below CMC, 50 µM): 9.18 | molar absorptivity ε295 [3]: 12900 M⁻¹ cm⁻¹ | effect of added CTAB on micellar volume ([4]; 3×10^-3 M CTAB, oxime 1×10^-3 M): more than doubles the micellar volume | effect of added CTAB on micellar volume ([4]; CTAB added, oxime 3×10^-3 M): percentage increase in micellar volume upon the addition of CTAB is less | critical micelle concentration [4]: 0.63 mM | cmc in the reaction medium [4]: 0.6 mM | micellar concentration ([4]; solution containing 1×10^-3 M 1-n-dodecyl-3-pyridiniumaldoxime iodide): approximately 4×10^-4 M

CCCCCCCCCCCCCCCC[N+](C)(C)C.[Br-]
additional micellar concentration provided by CTAB ([4]; 3×10^-3 M CTAB added to 1×10^-3 M 1-n-dodecyl-3-pyridiniumaldoxime iodide): approximately 5×10^-4 M | CMC of CTAB ([4]; footnote to Table III): 2.5 mM

CCCCCCC[n+]1cccc(C=NO)c1
t1/2 of diethyl p-nitrophenyl phosphate ([1]; (A) 4 × 10^-2 alone): 0.667 h | t1/2 of diethyl p-nitrophenyl phosphate ([1]; (A) 4 × 10^-4 alone): 51.5 h | t1/2 of diethyl p-nitrophenyl phosphate ([1]; (A) 9.1 × 10^-4 alone): 37.3 h | concentration-rate profile (observed first order rate constant vs concentration) ([1]; pH 9.3, μ=0.5): linear increase in the observed first order rate constant with increasing concentration | bimolecular rate constant, k2'=kobs/[A] ([1]; concentration range 10^-4 - 4×10^-2 M, carbonate-bicarbonate buffer pH 9.3, μ=0.5, 25°C): 1.2×10^-2 ±0.0008 M^-1 sec^-1 | molar absorptivity ε295 [3]: 12100 M⁻¹ cm⁻¹ | critical micelle concentration [4]: 1.95 mM | cmc in the reaction medium [4]: 2 mM
